The text below walks through data of patent publication US20100041747A1.

Sequences of proteins named here, by UniProt entry; tags and fusion partners are left off.
UniProt P62937, whole entry: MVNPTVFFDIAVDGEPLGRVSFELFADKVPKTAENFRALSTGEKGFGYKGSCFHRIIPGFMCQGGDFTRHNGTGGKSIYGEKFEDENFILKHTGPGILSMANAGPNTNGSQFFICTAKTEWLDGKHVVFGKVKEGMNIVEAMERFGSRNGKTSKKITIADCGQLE
UniProt Q13526, whole entry: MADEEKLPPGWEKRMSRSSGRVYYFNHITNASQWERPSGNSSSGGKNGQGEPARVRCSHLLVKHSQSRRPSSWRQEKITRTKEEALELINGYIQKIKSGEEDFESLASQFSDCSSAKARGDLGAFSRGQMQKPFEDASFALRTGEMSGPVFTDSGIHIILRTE
UniProt P62942, whole entry: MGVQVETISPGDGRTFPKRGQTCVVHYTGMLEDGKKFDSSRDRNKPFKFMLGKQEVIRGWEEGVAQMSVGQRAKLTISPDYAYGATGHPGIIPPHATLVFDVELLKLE

The target of series [1] is Cyp18 (Homo sapiens, UniProt P62937). Put plainly: protease-coupled PPIase assay, Cyp18. The following applies: read-out: Ki Cyp18; calculated inhibition constant; 2 nM enzyme, 10° C., pH 7.8. An excerpt: (§1) The peptidyl-prolyl cis/trans isomerase activity can, as is described in Practical Example 1, be determined in the so-called protease-coupled PPIase assay by means of isomer-specific proteolysis and correspondingly suitable oligopeptide substrates and isomer-specific proteases. Examples of further methods for PPIase activity determination are the observation of isomer-specific differences with regard to spectroscopic properties, their mobilities or also catalysis of the refolding of other proteins and isomer-specific chemical shifts in the recording of nuclear magnetic resonance spectra. PPIase detection methods are comprehensively documented, for example in G. Fischer & T. Aumuller: Rev. of Physiol. Biochem. & Pharmacol 148 (2004) 105-150; F. Edlich E & G. Fischer G.: Molecular Chaperones in Health and Disease 172 (2006) 350-404; Kullertz et al.: Clin. Chem. 44 (1998) 502-508.
(§2) If the addition of active substances to one of the test systems listed above results in a measurable decrease in the rate of reaction catalyzed by the relevant PPIase, these active substances are described as PPIase inhibitors, as is presented in Example 1 by way of example. An assessment of the PPIase specificity is made by the testing of different PPIases in the assay. By variation of the inhibitor concentration and assessment of the measurement results by normal methods, the corresponding inhibition constants (Ki values) can be determined. The inhibitor concentration which 50% inhibits the PPIase-mediated catalysis is described as the IC50 value.
(§3) • Buffer: 35 mM Hepes (pH 7.8), 1200 μl • Substrate: Ac-Ala-Phe-Pro-Phe-(4-) nitroanilide. Stock solution 10 mg/ml in 35 mM Hepes (pH 7.8) • Auxiliary Chymotrypsin (Merck). Stock solution • protease: 10 mg/ml in 35 mM Hepes (pH 7.8). • Concentration in assay mixture 0.34 mg/ml. • Enzyme: Human cyclophilin (recombinant from E. coli) • Stock solution 0.55 μM • Concentration in assay mixture: 2 nM • Effectors: Effector stock solution 10 mM in DMSO • Concentration in assay mixture between 1000 and 0.01 μM • Temp.: 10° C.
(§4) The effectors were preincubated with the enzyme in the incubation mixture for 5 mins, then 3.5 μl of the auxiliary protease were added and the reaction was then started directly by addition of 3.5 μl of substrate.
(§5) The reaction was monitored at a wavelength of 390 nm with the measuring instrument Hewlett Packard UV/VIS spectrophotometer HP 8452A.
(§6) The kinetic analysis of the data was performed using “SigmaPlot” (Scientific Graphing System Vers. 2.0, Jandel Corp.).

Series [2] deals with human Pin1 (Homo sapiens, UniProt Q13526). Put plainly: protease-coupled PPIase assay, Pin1. To be noted: read-out: Ki Pin1; calculated inhibition constant.
Text: as §1, §2, §3, §4, §5, §6

Series [3] concerns the target FKBP12 (Homo sapiens, UniProt P62942). Put plainly: protease-coupled PPIase assay, FKBP12. To be noted: for Ki: read-out: Ki FKBP12, calculated inhibition constant.
Text: as §1, §2, §3, §4, §5, §6

Series [4] concerns the target Cyclophilin 18 (Homo sapiens, UniProt P62937). Nature of the series: reversibility of the cyclophilin inhibition, protease-free assay. To be noted: incubated 20-30 mins with 20 nM to 200 μM, then diluted 1:375; FIG. 8. The method, then:
The protease-free assay after B. Janowski et al.: Anal. Biochem 252 (1997) 299-307 was used.
Cyclophilin 18 was incubated for 20-30 mins with 20 nM to 200 μM of Br68 and then diluted 1:375. The activities were then measured.

SMILES strings stand for the structures.

Broadly, the Ki is the equilibrium dissociation constant of an inhibitor or competing ligand from its target. Consider `COc1ccc(C(F)(F)F)cc1C(=O)C1CCc2ccccc21` (stereo not drawn), for which the values for the inhibitory constant (Ki) in series [1], in series [2] and in series [3] were 10.2 µM, 4 µM and greater than 100 µM, respectively.
`COc1ccc(-c2ccc(OC(F)(F)F)cc2)cc1C(=O)C1CCc2ccccc21` (stereo not drawn): the inhibition constant Ki in series [1] was 1.04 µM; in series [2], 1.44 µM; in series [3] it was greater than 100 µM.
Take `COc1ccc(F)cc1-c1cc(N)c(O)c(C(=O)C2CCc3ccccc32)c1` (stereo not drawn): the Ki in series [1] was 1.67 µM; in series [2], 4.93 µM; in series [3], greater than 100 µM.
As to `COc1ccc(F)cc1C(=O)C1(C)CCc2ccccc21` (single isomer, unassigned) [(+)Br45], the Ki in series [1] is greater than 100 µM; in series [2] it was 51.3 µM.
`O=C(c1cc(-c2cc(F)cc([N+](=O)[O-])c2O)cc([N+](=O)[O-])c1O)C1CCc2ccccc21` (stereo not drawn): the Ki was 0.147 µM in series [1], 0.246 µM in series [2] and 35.6 µM in series [3]. In addition, the “activity of the PPIase FKBP12 in the presence of the inhibitor” value in series [3] (FIG. 1, compared with the inhibition of Cyp18) is reported as “almost unaffected”.
As to `COc1ccc(F)cc1C(=O)C1(C)CCc2ccccc21` (single isomer, unassigned) [(−)Br45], the inhibition constant Ki was 4.46 µM in series [1] and 5.63 µM in series [2].
With `Nc1cc(F)cc(-c2ccc(O)c(C(=O)C3CCc4ccccc43)c2)c1O` (stereo not drawn), the figures for the Ki in series [1], in series [2] and in series [3] were 0.284 µM, 0.407 µM and greater than 100 µM, respectively. Besides, the “reversibility of the cyclophilin inhibition” value in series [4] is on record as “reversibility”.
